Assay results from PubChem BioAssay AID602329 (Broad Institute, 2012).
The list shows a part of the results, in another mix than the full data. The source made the active and inactive calls.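 Rule for the calls: active = mean normalized replicate activity at least 40 and at least half of replicates scoring 40 or more; inconclusive = only one of the two criteria met; inactive = mean below 40 and under half of replicates reaching 40.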

By UniProt entry, the sequences of proteins in these tests, tags left out.
UniProt Q92698, whole entry: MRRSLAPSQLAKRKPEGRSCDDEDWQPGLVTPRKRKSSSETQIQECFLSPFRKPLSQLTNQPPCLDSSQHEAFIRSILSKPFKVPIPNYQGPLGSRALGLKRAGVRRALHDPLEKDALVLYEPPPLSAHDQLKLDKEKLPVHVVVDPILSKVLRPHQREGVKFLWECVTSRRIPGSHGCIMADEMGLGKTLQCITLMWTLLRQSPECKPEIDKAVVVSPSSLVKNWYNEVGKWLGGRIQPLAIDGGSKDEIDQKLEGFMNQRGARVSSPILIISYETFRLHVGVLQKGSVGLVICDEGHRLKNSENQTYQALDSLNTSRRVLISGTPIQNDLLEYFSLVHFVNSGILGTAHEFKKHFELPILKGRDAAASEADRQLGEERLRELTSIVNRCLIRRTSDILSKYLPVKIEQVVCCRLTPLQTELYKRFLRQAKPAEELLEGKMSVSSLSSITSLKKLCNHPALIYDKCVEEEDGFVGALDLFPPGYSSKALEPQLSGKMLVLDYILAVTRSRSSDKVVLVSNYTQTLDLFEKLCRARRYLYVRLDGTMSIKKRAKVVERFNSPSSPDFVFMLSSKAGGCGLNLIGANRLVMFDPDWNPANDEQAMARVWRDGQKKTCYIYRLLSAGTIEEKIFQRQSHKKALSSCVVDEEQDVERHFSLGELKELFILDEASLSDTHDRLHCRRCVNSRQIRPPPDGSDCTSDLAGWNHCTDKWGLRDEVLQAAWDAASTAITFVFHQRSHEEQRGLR

What follows are compounds tested against DNA repair and recombination protein RAD54-like (Homo sapiens) (UniProt Q92698) (assay: inhibitors of human RAD54 branch migration, primary screen, biochemical, fluorescence, single point (AID 602329;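 note: 0% = median of neutral control wells and 100% = median of positive control wells; inhibitors cause a drop in the FAM fluorescence signal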)). Conditions: RAD54 Holliday junction branch migration, FAM/BHQ fluorescence; at 10.4 µM; active compounds read high.

| SMILES | inhibition |
| --- | --- |
| O=c1[nH]c2ccccc2n1C1CCN(C(c2ccccc2)c2nnnn2C2CCCCC2)CC1 (stereo unspecified) | inactive: -4.31% |
| CCOC(=O)N1CCC(Nc2ccc(F)cc2)CC1 | inactive: 2.86% |
| COc1ccc(NC2CCN(CCc3ccccc3)CC2)c(OC)c1 | inactive: -2.78% |
| CCCCOc1ccc(C(=O)NCC2(N3CCOCC3)CCCCC2)cc1 | inactive: -8.92% |
| CCCCn1nnnc1C(c1cc2ccccc2o1)N1CCC(n2c(=O)[nH]c3ccccc32)CC1 (stereo unspecified) | inactive: 4.45% |
| O=P1(N(CCCl)CCCl)SCCCS1 | inactive: 5.52% |
| O=C(NCC1(N2CCCCC2)CCCCC1)c1ccc(F)cc1 | inactive: 5.6% |
| O=C1CCN(Cc2ccccc2)CC1 | inactive: -6.56% |
| CC(C)(C)n1nnnc1C(c1ccccc1)N1CCC(n2c(=O)[nH]c3ccccc32)CC1 (stereo unspecified) | inactive: -2.45% |
| CCCCn1nnnc1C(c1ccc(OC)cc1)N1CCC(n2c(=O)[nH]c3ccccc32)CC1 (stereo unspecified) | inactive: 1.43% |
| CCOC(=O)N1CCC(Nc2ccc(OC)cc2)CC1 | inactive: -2.31% |
| O=C(NCC1(N2CCCCC2)CCCCC1)c1ccc(Cl)s1 | inactive: 0.212% |
| O=c1[nH]c2ccccc2n1C1CCN(C(c2cc3ccccc3o2)c2nnnn2C2CCCCC2)CC1 (stereo unspecified) | inactive: -10.4% |
| O=C(OC1CN2CCC1CC2)C1c2ccccc2Oc2ccccc21 (stereo unspecified) | inactive: -11.9% |
| Cc1cc(C)cc(N(C(=O)c2ccccc2)C2CCN(C(=O)OC(C)(C)C)CC2)c1 | inactive: -5.06% |
| O=C(NCC1(N2CCCCC2)CCCCC1)c1ccc(Cl)nc1 | inactive: -5.54% |
| O=c1[nH]c2ccccc2n1C1CCN(C(c2ccccc2OC(F)(F)F)c2nnnn2C2CCCCC2)CC1 (stereo unspecified) | inactive: -0.723% |
| Cc1cccc(NC2(C#N)CCN(Cc3ccccc3)CC2)c1 | inactive: -5.99% |
| CSc1ccccc1C(=O)NCC1(N2CCCCC2)CCCCC1 | inactive: -0.558% |
| CCCCn1nnnc1C(CC)N1CCC(n2c(=O)[nH]c3ccccc32)CC1 (stereo unspecified) | inactive: -15% |
| O=C(NCC1(N2CCCCC2)CCCCC1)c1cccs1 | inactive: -3.12% |
| CCCCn1nnnc1C(c1cccs1)N1CCC(n2c(=O)[nH]c3ccccc32)CC1 (stereo unspecified) | inactive: 5.97% |

| SMILES | inhibition |
| --- | --- |
| O=C(NCC1(N2CCCCC2)CCCCC1)c1ccc(=O)[nH]c1 | inactive: -4.35% |
| CC(C)(C)OC(=O)N1CCC(N(C(=O)c2ccccc2)c2ccc(F)cc2)CC1 | inactive: -8.11% |
| CCC(c1nnnn1C1CCCC1)N1CCC(n2c(=O)[nH]c3ccccc32)CC1 (stereo unspecified) | inactive: -4.43% |
| COc1ccc(C(=O)NCC2(N3CCCCC3)CCCCC2)cc1 | inactive: -12.7% |
| CN1CCC(Nc2ccc(Cl)cc2)CC1 | inactive: -11.9% |
| CCC(CO)(C(=O)OC1CN2CCC1CC2)c1ccccc1 (stereo unspecified) | inactive: -6.93% |
| COc1cccc(C(=O)N(c2cc(C)cc(C)c2)C2CCN(C(=O)OC(C)(C)C)CC2)c1 | inactive: -10.8% |
| COc1cc(OC)cc(C(=O)NCC2(N3CCOCC3)CCCCC2)c1 | inactive: 2.99% |
| COc1cccc(C(c2nnnn2C2CCCC2)N2CCC(n3c(=O)[nH]c4ccccc43)CC2)c1OC (stereo unspecified) | inactive: 2.89% |
| O=c1[nH]c2ccccc2n1C1CCN(C(c2cc3ccccc3o2)c2nnnn2C2CCCC2)CC1 (stereo unspecified) | inactive: -3.09% |
| CCCOc1ccc(C(=O)NCC2(N(C)C)CCCCC2)cc1 | inactive: -1.78% |
| O=C(O)C1(Nc2ccccc2)CCN(Cc2ccccc2)CC1 | inactive: 6.13% |
| CN1CCC(Nc2ccc(F)c(Cl)c2)CC1 | inactive: -6.91% |
| CCOc1ncccc1C(=O)NCC1(N2CCOCC2)CCCCC1 | inactive: -15.8% |
| Cn1c(=O)[nH]cc(N(CCCl)CCCl)c1=O | inactive: -10.8% |
| O=C(NCC1(N2CCCCC2)CCCCC1)c1ccco1 | inactive: -5.37% |
| COc1ccc(C(c2nnnn2C2CCCCC2)N2CCC(n3c(=O)[nH]c4ccccc43)CC2)cc1 (stereo unspecified) | inactive: -2.64% |
| CC(C)(C)n1nnnc1C(c1ccnc2ccccc12)N1CCC(n2c(=O)[nH]c3ccccc32)CC1 (stereo unspecified) | inactive: 2.18% |
| Cc1ccccc1NC1(C#N)CCN(Cc2ccccc2)CC1 | inactive: -9.24% |
| Cc1ccc(NC2(C#N)CCN(Cc3ccccc3)CC2)cc1 | inactive: -5.35% |
| Fc1ccccc1NC1CCN(Cc2ccccc2)CC1 | inactive: 1.69% |
| Cc1ccc(C(=O)NCC2(N3CCCCC3)CCCCC2)o1 | inactive: -1.69% |

| SMILES | inhibition |
| --- | --- |
| COc1cc(OC)cc(C(=O)NCC2(N3CCCCC3)CCCCC2)c1 | inactive: -1.26% |
| O=c1[nH]c2ccccc2n1C1CCN(C(c2ccnc3ccccc23)c2nnnn2C2CCCCC2)CC1 (stereo unspecified) | inactive: 9.87% |
| CCC(c1nnnn1C1CCCCC1)N1CCC(n2c(=O)[nH]c3ccccc32)CC1 (stereo unspecified) | inactive: 8.4% |
| COc1cccc(C(c2nnnn2C2CCCCC2)N2CCC(n3c(=O)[nH]c4ccccc43)CC2)c1OC (stereo unspecified) | inactive: 5.94% |
| CC(=O)N(c1ccccc1)C1CCNCC1 | inactive: 7.9% |
| CC(C)(C)n1nnnc1C(c1cccc2ccccc12)N1CCC(n2c(=O)[nH]c3ccccc32)CC1 (stereo unspecified) | inactive: 1.99% |
| O=c1[nH]c2ccccc2n1C1CCN(C(c2ccccc2)c2nnnn2C2CCCC2)CC1 (stereo unspecified) | inactive: -6.79% |
| CCCN1CCC(Nc2cc(OC)cc(OC)c2)CC1 | inactive: 13.6% |
| c1ccc(CN2CCC(Nc3ccccc3)CC2)cc1 | inactive: -4.77% |
| CN(C)C1(CNC(=O)c2cccc(C#N)c2)CCCCC1 | inactive: 0.695% |
| CC(C)(C)OC(=O)N1CCC(N(C(=O)c2ccccc2)c2ccc(Cl)cc2)CC1 | inactive: 8.26% |
| N#Cc1ccc(C(=O)NCC2(N3CCCCC3)CCCCC2)cc1 | inactive: -1.62% |
| CCCCn1nnnc1C(c1cccc(OC)c1OC)N1CCC(n2c(=O)[nH]c3ccccc32)CC1 (stereo unspecified) | inactive: 3.5% |
| O=c1[nH]c2ccccc2n1C1CCN(C(c2cccs2)c2nnnn2C2CCCC2)CC1 (stereo unspecified) | inactive: 6.6% |
| N/C(=N\O)c1c(N)no[n+]1[O-] | inactive: -5.1% |
| CCOC(=O)N1CCC(Nc2ccc(C)cc2)CC1 | inactive: -3.22% |
| COc1cccc(C(c2nnnn2C(C)(C)C)N2CCC(n3c(=O)[nH]c4ccccc43)CC2)c1OC (stereo unspecified) | inactive: -4.81% |
| O=c1[nH]c2ccccc2n1C1CCN(C(c2ccnc3ccccc23)c2nnnn2C2CCCC2)CC1 (stereo unspecified) | inactive: -2.33% |
| O=c1[nH]c2ccccc2n1C1CCN(C(c2cccs2)c2nnnn2C2CCCCC2)CC1 (stereo unspecified) | inactive: -2.55% |
| O=C(NCC1(N2CCOCC2)CCCCC1)c1cc(Br)ccc1Cl | inactive: -5.93% |
| COc1cc(C(=O)NCC2(N3CCOCC3)CCCCC2)cc(OC)c1C | inactive: -5.1% |
| CCCCn1nnnc1C(c1ccccc1)N1CCC(n2c(=O)[nH]c3ccccc32)CC1 (stereo unspecified) | inactive: 6.61% |
